MC4R barr agon – MC4R agonists recruiting beta-arrestin, primary screen, cell-based, luminescence, agonist arm of biased-ligand search; Melanocortin receptor 4 (Homo sapiens), P32245; U2OS MC4R beta-arrestin complementation; percent of melanotan II response, DMSO zero; activation, % at 8.9 µM; actives 0.98% (n = 360,000); AID 540308, 2011;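 active means activation above a per-plate cutoff, the mean activation of sample wells on that plate plus 3 SD, cut at about 8% in these data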
MC4R antag cAMP – MC4R antagonists of cAMP signaling, primary screen, cell-based, TR-FRET, antagonist arm of biased-ligand search; Melanocortin receptor 4 (Homo sapiens), P32245; MC4R-expressing cells, MTII-stimulated cAMP, LANCE TR-FRET; inhibition, % at 6.5 µM; actives 0.48% (n = 360,000); AID 540295, 2011;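 active means inhibition above its plate's cutoff, the mean of tested wells on that plate plus 3 SD, cut at about 29% in these data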;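 further: 0% = Melanotan II alone and 100% = Melanotan II plus saturating MCL0020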
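Material: human MC4R-expressing U2OS cells. Probe or stimulus: Melanotan II challenge. Dosing: 6.5 µM single dose. Times: 30-min compound, 1-h challenge, 1-h detection, room temperature. Technique: TR-FRET with Eu-cAMP and labeled anti-cAMP, 671 nm. Replication: singlicate.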
HDAC3 inhib – HDAC3 deacetylase inhibitors, primary screen, biochemical, fluorescence, cell-free homogeneous; Histone deacetylase 3 (Homo sapiens), O15379; recombinant HDAC3, fluorogenic peptide/trypsin coupled; inhibition, % at 8.3 µM; actives 0.15% (n = 320,000); AID 2718, 2010; in the data active means inhibition above about 26%, passing the limit was not always enough
UUG fidelity – modulators of yeast start codon fidelity, primary screen, whole organism, S. cerevisiae, single point, plate reader; S. cerevisiae UUG-firefly luciferase reporter, luminescence/redox ratio; activity score, % at 18.7 µM; actives 0.13% (n = 350,000);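 active means replicate mean at a twofold rise or more, about +100% in these data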;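 further: firefly luciferase made from a UUG start codon reports start codon fidelity; reporter light over untreated wells divided by growth signal over untreated wells; some hits fall short of that in this replicate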
ALR inh – blocks human ALR sulfhydryl oxidase activity; inhibition, % (concentration not given with the values); purified ALR, DTT oxidation, H2O2 HRP-luminol luminescence; P55789; 3.8% of 290,000 active;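 active = mean and each replicate at 75% or more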;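 also: stock transfer was 7.5 nL into about 7.5 µL; 0% = neutral wells and 100% = wells with inactivated enzyme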
NALP1 yeast inh – NALP1 inflammasome inhibitors in reconstituted yeast, colorimetric, S. cerevisiae, triplicate retest; S. cerevisiae NALP1/ASC/caspase-1 growth, X-gal OD620, 72 h; inhibition, % at 10 µM; actives 0.61% (n = 280,000); AID 2071, 2009; in the data active means inhibition mostly above about 24%, no sharp cut-off; inactive means mostly below about 32%
MC4R barr conf – MC4R beta-arrestin agonists, retest, confirmation, cell-based, luminescence, U2OS; shares compounds with MC4R barr agon; U2OS MC4R beta-arrestin recruitment; scaled DMSO 0%, Melanotan II 100%; actives 31% (n = 2,400); activation, % at 8.9 µM;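 active means mean activation across replicates above the hit cutoff set in the earlier primary screen, cut at about 8% in these data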
MOR DOR agonist – agonists of MOR-DOR heterodimerization, counter-screen for MC4R biased agonist project, cell-based, luminescence; shares compounds with MC4R barr agon; U2OS PathHunter beta-arrestin, beta-gal luminescence; percent of deltorphin B response, DMSO zero; activation, % at 9.2 µM; actives 5.8% (n = 2,400);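 active means mean activation across replicates exceeds the hit threshold derived in the earlier primary screen, cut at about 18% in these data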;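 further: 100% = deltorphin B at 0.9 µM final and 0% = DMSO alone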
* marks the source's active call; other numbers are inactive results; / = no result. Only some compounds are listed: those with a hit (about 4.2% of all), similar ones and a draw of the others.

The chains behind the UniProt entries cited, without tags or fusion partners.
Melanocortin receptor 4 (Homo sapiens), P32245, UniProt P32245, whole entry, looked up: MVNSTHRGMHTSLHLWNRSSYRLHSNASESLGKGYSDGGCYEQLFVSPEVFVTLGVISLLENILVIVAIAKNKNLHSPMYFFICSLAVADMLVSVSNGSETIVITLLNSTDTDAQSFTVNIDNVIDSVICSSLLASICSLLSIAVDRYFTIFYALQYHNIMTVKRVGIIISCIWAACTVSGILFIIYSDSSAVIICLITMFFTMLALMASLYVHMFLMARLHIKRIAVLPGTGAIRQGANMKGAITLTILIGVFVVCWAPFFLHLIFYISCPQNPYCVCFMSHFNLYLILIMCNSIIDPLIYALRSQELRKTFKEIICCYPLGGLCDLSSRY

1. O=C(C[C@H]1CC[C@@H](NC(=O)Nc2cc(F)ccc2F)[C@@H](CO)O1)Nc1ccc(-c2ccccc2)cc1
2. Cc1ccc(S(=O)(=O)N(C)Cc2ccc(C(=O)N/N=C/c3ccc(OC(F)F)cc3)cc2)cc1
3. COc1ccc(/C=N/NC(=O)Nc2cccc3nsnc23)cc1OC
4. CC(=O)Nc1cc(-c2ccc(N)nc2)cn2c(-c3cccc(C(F)(F)F)c3)cnc12
5. CC(=O)Nc1cc(-c2ccc(N)cc2)cn2c(-c3cccc(C(F)(F)F)c3)cnc12
6. COc1ccc(F)cc1-c1cc(NC(C)=O)c2ncc(-c3cccc(C(F)(F)F)c3)n2c1
7. CC(=O)Nc1cc(-c2ccc(CO)cc2)cn2c(-c3cccc(C(F)(F)F)c3)cnc12
8. C[C@@H]1CN([C@@H](C)CO)C(=O)c2cc(NC(=O)Cn3cnnn3)ccc2O[C@@H]1CN(C)Cc1ccc2c(c1)OCO2

| screen / no. | 1 | 2 | 3 | 4 | 5 | 6 | 7 | 8 |
| --- | --- | --- | --- | --- | --- | --- | --- | --- |
| MC4R barr agon | / | 25* | 11* | 19* | 11* | 19* | 19* | / |
| MC4R antag cAMP | / | -1 | 1 | 1 | 17 | 9 | 9 | / |
| HDAC3 inhib | / | 3 | 10 | / | / | / | / | / |
| UUG fidelity | 12 | -15 | / | -7 | -15 | 2 | -10 | -7 |
| ALR inh | / | -8 | -19 | / | / | / | / | / |
| NALP1 yeast inh | / | 2 | 27 | / | / | / | / | / |
| MC4R barr conf | / | 3 | 1 | 9.8* | 12* | 15* | 20* | / |
| MOR DOR agonist | / | 12 | 12 | 3 | 3 | 3 | 3 | / |

9. CCC(Oc1cc(Cl)ccc1Cl)C(=O)NN1C(=O)C2C3CCC(C3=C(C)C)C2C1=O (stereo not drawn)
10. CCCc1c(C(=O)N/N=C/c2c(OC)ccc3ccccc23)nnn1-c1nonc1N
11. COc1ccc(/C(C)=N/NC(=O)c2nnn(-c3nonc3N)c2CN(C)c2ccccc2)cc1
12. Cc1ccsc1/C=N/NC(=O)c1nnn(-c2nonc2N)c1CSc1ccccc1
13. Cc1nnn(-c2nonc2N)c1C(=O)N/N=C/c1ccccc1O
14. Cc1noc(C)c1NC(=O)N(C)C[C@H]1Oc2ccc(NS(=O)(=O)c3ccc(Cl)cc3)cc2C(=O)N([C@@H](C)CO)C[C@H]1C
15. CC(C)NC(=O)N(C)C[C@@H]1Oc2ccc(N(C)C)cc2C(=O)N([C@@H](C)CO)C[C@@H]1C
16. CC(C)C#Cc1ccc2c(c1)O[C@H](CN(C)C(=O)NC(C)C)[C@H](C)CN([C@@H](C)CO)S2(=O)=O

| screen / no. | 9 | 10 | 11 | 12 | 13 | 14 | 15 | 16 |
| --- | --- | --- | --- | --- | --- | --- | --- | --- |
| MC4R barr agon | 9.9* | 25* | 13* | 11* | 10* | / | / | / |
| MC4R antag cAMP | 4 | -1 | -8 | 1 | 7 | / | / | / |
| HDAC3 inhib | 12 | -6 | -7 | -15 | 0 | / | / | / |
| UUG fidelity | 1 | -25 | -10 | -17 | / | -8 | -5 | 16 |
| ALR inh | -6 | -3 | -2 | -2 | -13 | / | / | / |
| NALP1 yeast inh | 9 | 12 | 28 | 18 | 31 | / | / | / |
| MC4R barr conf | 6 | 11* | 3 | 6 | 1 | / | / | / |
| MOR DOR agonist | 8 | 5 | 8 | 10 | 4 | / | / | / |

17. C[C@@H]1CCCCO[C@H](CN(C)Cc2ccc(C(=O)O)cc2)[C@@H](C)CN([C@H](C)CO)C(=O)c2cc(NS(=O)(=O)c3cccs3)ccc2O1
18. Cc1nn(Cc2c(F)c(F)c(F)c(F)c2F)c(C)c1NC(=O)c1cccc(COc2ccccc2Cl)c1
19. COc1ccc(-c2cc(C(=O)Nc3c(C)nn(Cc4ccccc4Cl)c3C)no2)cc1
20. C[C@H]1CN([C@@H](C)CO)S(=O)(=O)c2ccc(Br)cc2O[C@@H]1CN(C)C(=O)CN(C)C
21. CN(C)C(=O)C[C@@H]1CC[C@@H]2[C@H](COC[C@H](O)CN2C(=O)c2ccncc2)O1
22. CCc1c(C(=O)Nc2ccc(OC)cc2)[nH]c(C)c1C(C)=O
23. CCc1c(C(=O)Nc2cc(C)ccc2OC)[nH]c(C)c1C(C)=O
24. Cc1ccc2sc(N(CCCN(C)C)C(=O)CN3C(=O)c4ccccc4C3=O)nc2c1C

| screen / no. | 17 | 18 | 19 | 20 | 21 | 22 | 23 | 24 |
| --- | --- | --- | --- | --- | --- | --- | --- | --- |
| MC4R barr agon | / | 17* | 13* | / | / | -3 | 11* | 18* |
| MC4R antag cAMP | / | 9 | -4 | / | / | -4 | 3 | -3 |
| HDAC3 inhib | / | -1 | 1 | / | / | 0 | 5 | 6 |
| UUG fidelity | -6 | -38 | -18 | 5 | -2 | -26 | -3 | -7 |
| ALR inh | / | 2 | -3 | / | / | -7 | -3 | -45 |
| NALP1 yeast inh | / | -6 | -26 | / | / | -4 | 24 | -10 |
| MC4R barr conf | / | 6 | 11* | / | / | / | 10* | 19* |
| MOR DOR agonist | / | 3 | 4 | / | / | / | 6 | 9 |

25. Cc1ccc2sc(N(CCN(C)C)C(=O)c3ccc4ccccc4c3)nc2c1C
26. COc1ccc(S(=O)(=O)Nc2ccc3c(c2)C(=O)N([C@@H](C)CO)C[C@H](C)[C@@H](CN(C)C(=O)NC2CCCCC2)OCCCC[C@@H](C)O3)cc1
27. Cc1ccc(S(=O)(=O)NCC[C@H]2CC[C@H](NS(=O)(=O)c3ccccc3Cl)[C@H](CO)O2)cc1
28. C[C@@H]1CN([C@@H](C)CO)C(=O)c2cc(NC(=O)Cn3cnnn3)ccc2O[C@H]1CN(C)CC1CCCCC1
29. O=C(COC(=O)/C=C/c1ccc([N+](=O)[O-])cc1)NC(c1ccccc1)c1ccccc1
30. C=CCOc1ccc(/C=C/C(=O)OCC(=O)NC2CCCCCCC2)cc1
31. O=C(COC(=O)/C=C/c1ccc([N+](=O)[O-])cc1)NC(=O)NC1CCCCC1
32. C=CCOc1ccc(/C=C/C(=O)OCC(=O)NCC2CCCCC2)cc1

| screen / no. | 25 | 26 | 27 | 28 | 29 | 30 | 31 | 32 |
| --- | --- | --- | --- | --- | --- | --- | --- | --- |
| MC4R barr agon | -1 | / | / | / | 12* | 0 | 19* | 12* |
| MC4R antag cAMP | 5 | / | / | / | 5 | -5 | -3 | 0 |
| HDAC3 inhib | 13 | / | / | / | 1 | -3 | -5 | 10 |
| UUG fidelity | -25 | 2 | 9 | -12 | / | -37 | -17 | -9 |
| ALR inh | -5 | / | / | / | / | -2 | 1 | -3 |
| NALP1 yeast inh | 10 | / | / | / | 27 | 8 | / | / |
| MC4R barr conf | / | / | / | / | 2 | / | 7 | 1 |
| MOR DOR agonist | / | / | / | / | 1 | / | 13 | 3 |

Arranged by heavy-atom count (falling): four of the compounds above
14. Cc1noc(C)c1NC(=O)N(C)C[C@H]1Oc2ccc(NS(=O)(=O)c3ccc(Cl)cc3)cc2C(=O)N([C@@H](C)CO)C[C@H]1C
27. Cc1ccc(S(=O)(=O)NCC[C@H]2CC[C@H](NS(=O)(=O)c3ccccc3Cl)[C@H](CO)O2)cc1
9. CCC(Oc1cc(Cl)ccc1Cl)C(=O)NN1C(=O)C2C3CCC(C3=C(C)C)C2C1=O (stereo not drawn)
23. CCc1c(C(=O)Nc2cc(C)ccc2OC)[nH]c(C)c1C(C)=O

| screen / no. | 14 | 27 | 9 | 23 |
| --- | --- | --- | --- | --- |
| MC4R barr agon | / | / | 9.9* | 11* |
| MC4R antag cAMP | / | / | 4 | 3 |
| HDAC3 inhib | / | / | 12 | 5 |
| UUG fidelity | -8 | 9 | 1 | -3 |
| ALR inh | / | / | -6 | -3 |
| NALP1 yeast inh | / | / | 9 | 24 |
| MC4R barr conf | / | / | 6 | 10* |
| MOR DOR agonist | / | / | 8 | 6 |

Next results
33. O=C(COC(=O)/C=C/c1ccccc1)NC(=O)NC1CCCCC1
34. C[C@H](CO)N1C[C@H](C)[C@@H](CN(C)C)Oc2ccc(NS(=O)(=O)c3ccc(Cl)cc3)cc2C1=O
35. O=C(NC1CCCCC1)N[C@H]1CC[C@H](CC(=O)N2CCOCC2)O[C@@H]1CO
36. CC(C)CC(=O)OC1C(N2CCOCC2)c2c(ccc(/C=C/C(=O)N3CCOCC3)c2O)OC1(C)C (stereo not drawn)
37. COC(=O)c1sc2nc(CSc3ccc(Br)cc3)[nH]c(=O)c2c1C

| screen / no. | 33 | 34 | 35 | 36 | 37 |
| --- | --- | --- | --- | --- | --- |
| MC4R barr agon | 6 | / | / | 12* | 8 |
| MC4R antag cAMP | 2 | / | / | 1 | 11 |
| HDAC3 inhib | 5 | / | / | 6 | -7 |
| UUG fidelity | -2 | -5 | -7 | 8 | / |
| ALR inh | / | / | / | 2 | -7 |
| NALP1 yeast inh | / | / | / | 11 | 21 |
| MC4R barr conf | / | / | / | 5 | / |
| MOR DOR agonist | / | / | / | 3 | / |
